Nrf2 block: inhibitors of Nrf2 signaling; A549 ARE-Fluc reporter, luciferase luminescence, 18-24 h; Potency, µM (titrated, usually from 46 µM), hits mostly inhibitors; 360,000 compounds, 2.1% hits; AID 504444; note: nearly all actives have a fitted effect of over 60% in size
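Reporter: ARE-Fluc in A549. Exposure: 18-24 h, 37 °C, 5% CO2, 5% FBS OPTI-MEM. Readouts: fluorescent cytotoxicity (CellTiter-Fluor), then luminescent Nrf2 signal after BugLite.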
Nrf2 activator: activates Nrf2 signaling; 410,000 compounds, 0.31% hits; AID 624171; Potency, µM (series often up to 46.1 µM), hits mostly activators; AREc32 ARE-luciferase reporter (MCF7-derived line), luminescence, 24 h; note: nearly all actives have a fitted effect of over 65% in size
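AREc32 cells carrying an ARE-driven firefly luciferase reporter were seeded at 1000 cells/well in OPTI-MEM with 5% FBS, then exposed to compound for 24 hr at 37 deg C. Luminescence was read with Steady-Glo after 30 min at RT.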
ClpP mod: qHTS Assay for Activators of ClpP; AID 651965, 2013; 340,000 compounds, 1.9% hits; Potency, µM (highest dose often 57.5 µM); purified B. subtilis ClpP, FRET peptide cleavage, 20 min; active = well fitted falling curve with a large enough effect; inconclusive = small, poorly fitted or top-dose-only effect; inactive = no such curve, though single readings can be large or run the other way; note: the source files actives as falling curves though it sought activators and does not explain the sign; nearly all actives have a fitted effect of over 65% in size
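Buffer: 100 mM Tris/HCl pH8, 100 mM KCl, 0.05% low protease BSA, 2.5% glycerol, 0.01% Tween-20. ClpP 10 microg/mL final; 20 min RT; delta FRET normalized to ADEP and DMSO controls.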
A549 tox-1: A549 cytotoxicity, counter-screen for Nrf2 inhibitors. A549 ARE-Fluc cells, CellTiter-Fluor viability, 18-24 h. 390,000 compounds, 0.16% hits. Potency, µM (top dose mostly 46 µM), hits mostly inhibitors
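A549 ARE_Fluc cells in 5% FBS OPTI-MEM were exposed to compounds in concentration-response for 18-24 h at 37 deg C. Viability was read by CellTiter-Fluor fluorescence (Ex 405/Em 525) after 30 min, before the luciferase read.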
miR-21 reporter: miR-21 reporter, rising signal; HeLa miR-21 FLuc reporter, luciferase, 48 h; Potency, µM (titrated, usually from 38.3 µM); AID 2288; 340,000 tested, under 10 active; active = well fitted rising curve with a large enough effect; inconclusive = small, poorly fitted or top-dose-only effect; inactive = no such curve, though single readings can be large or run the other way;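 further: miR-21 action dims this reporter so a rising signal means less miR-21 action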
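HeLa cells endogenously expressing miR-21, stably carrying CMV-driven firefly luciferase with a downstream miR-21 binding site, 2000 cells/well. Titrations up to approximately 40 uM, 48 hours; luciferase luminescence read.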
TCR activator: activators of T cell receptors; Potency, µM (top dose mostly 9.22 µM), actives largely listed as activators; primary human leukocytes, anti-CD3, IL-2 HTRF, 48 h; 330,000 tested, under 10 active; AID 504894
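Compounds are tested in HTS on primary human leukocytes co-incubated with a-CD3 beads for 48 hr. IL-2 output is measured by time-resolved FRET.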
FLuc counter 3: counter-screen for Nrf2 inhibitors: firefly luciferase enzyme inhibition; shares compounds with Nrf2 block; purified firefly luciferase, luminescence inhibition; Potency, µM (doses to about 57.5 µM), actives largely listed as inhibitors; 1,400 compounds, 4% hits; note: nearly all actives have a fitted effect of over 65% in size
A549 tox-2: A549 cytotoxicity, Nrf2 inhibitor counterscreen | 1,400 compounds, 2% hits | Potency, µM (doses to about 46.1 µM), actives largely listed as inhibitors | shares compounds with Nrf2 block | A549 ARE-Fluc cells, cytotoxicity counterscreen;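 note: cells exposed to compounds for 18 to 24 hours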
ARE-Fluc inh: reduces Nrf2 ARE reporter signal in A549 cells. shares compounds with Nrf2 block. A549 ARE-firefly luciferase reporter, luminescence. Potency, µM (series often up to 46.1 µM), actives largely listed as inhibitors. 1,400 compounds, 74% hits. AID 720524; note: nearly all actives have a fitted effect of over 65% in size
A number is an active result; – = inactive; ? = inconclusive; · = not tested or not shown; [ ] = dose if it differs, or a comment. Hits are enriched below; roughly 3.7% of the tested compounds scored in any of these assays. Unless noted, calls come from the whole dose curve; as a rule, active = well fitted curve in the direction sought with a large enough effect; inconclusive = small, poorly fitted or top-dose-only effect, or another doubt; inactive = no such curve, though single readings can be large; an effect the other way counts as inactive or inconclusive.

SMILES | Nrf2 block | Nrf2 activator | ClpP mod | A549 tox-1 | miR-21 reporter | TCR activator | FLuc counter 3 | A549 tox-2 | ARE-Fluc inh
CCOC(=O)C1=C(CN2CCN(c3ccccc3)CC2)NC(=O)NC1c1ccc(C)cc1 (centres undefined) | – | – | – | – | – | · | · | · | ·
CN(Cc1cnn(-c2ccc(F)cc2)c1)C(=O)[C@H]1O[C@@H](n2cnc3c(N)ncnc32)[C@H](O)[C@@H]1O | · | – | – | · | · | · | · | · | ·
O=S(=O)(c1ccc(-c2csc(=Nc3ccc(OC(F)(F)Cl)cc3)n2CCCO)cc1)N1CCCC1 | 6.5µM | – | – | ? | ? | · | – | ? | 7.3µM
OCCCn1c(-c2ccccc2)csc1=Nc1ccccc1 | – | – | · | – | – | – | · | · | ·
Cn1c(-c2ccc(S(=O)(=O)N3CCCC3)cc2)csc1=Nc1ccc(Cl)c(Cl)c1 | 3.3µM | – | – | – | – | · | ? | – | 6.5µM
CCc1cccc(NC(=O)CSc2nncn3c2cc2sccc23)c1 | ? | – | – | – | – | · | · | · | ·
CCc1nnc(NC(=O)c2ccc(OCc3c(C)noc3C)c(OC)c2)s1 | 5.8µM | – | – | – | – | – | – | – | –
COc1ccc(CCNC(=O)C(C)n2nc(C)c3c(C)n(-c4ccc(C)cc4)nc3c2=O)c(OC)c1 (centres undefined) | 5.8µM | – | – | ? | – | – | – | – | 5.8µM
COCCCN(Cc1cc(OC)c(OC)c(OC)c1)C(=S)Nc1cccc(SC)c1 | · | – | – | · | · | · | · | · | ·
COc1cccc2cc(-c3nnc(SCC(=O)Nc4ccc(NC(C)=O)cc4)n3C)oc12 | – | – | · | – | – | – | · | · | ·
CCOC(=O)c1c(Nc2ccc(Cl)cc2)sc(/C=C2\C=Nc3ccccc32)c1O | 1.5µM | – | – | –[1.84 µM] | – | · | – | ? | 4.1µM
COc1ccccc1NC(=O)C(Cc1ccccc1)NS(=O)(=O)c1ccc2c(c1)c(=O)n(C)c(=O)n2C (centres undefined) | – | – | – | – | – | · | · | · | ·
NC(=NCc1ccco1)NC(=O)c1ccc(Cl)cc1 | ? | – | · | – | – | – | · | · | ·
COc1cc(OC)cc(-c2cc3nc(C)c(CCC(=O)Nc4ccc(F)c(Cl)c4)c(C)n3n2)c1 | 2.1µM | – | – | – | ? | · | ? | – | 5.8µM
Cc1ccc(/C=C/c2onc(C)c2S(=O)(=O)N2CCC(C(=O)Nc3ccccc3C(F)(F)F)CC2)cc1 | · | – | – | – | – | · | · | · | ·
COc1ccc(Br)cc1CN(C)C(=O)Cc1ccc(OC)c(S(=O)(=O)N2CCOCC2)c1 | 8.2µM | – | – | – | · | · | – | – | –
COc1ccc(CN(C)C(=O)Cc2ccc(OC)c(S(=O)(=O)N3CCOCC3)c2)cc1OC | – | – | – | – | · | – | · | · | ·
CC(=O)c1c(C)oc2ccc(N(C(=O)c3ccncc3)S(=O)(=O)c3ccc(F)cc3C)cc12 | ? | – | – | – | ? | · | · | · | ·
COC(=O)c1c(C)oc2ccc(N(C(=O)c3ccncc3)S(=O)(=O)c3cc(C)c(C)cc3C)cc12 | 9.2µM | – | – | – | – | · | – | – | 10µM
COC(=O)c1c(C)oc2ccc(N(C(=O)c3ccncc3)S(=O)(=O)c3c(C)cc(C)cc3C)cc12 | 4.1µM | – | – | – | – | · | – | – | 5.8µM
CCOC(=O)c1c(C)oc2ccc(N(C(=O)c3ccncc3)S(=O)(=O)c3ccc(F)cc3C)cc12 | ? | – | – | – | – | · | · | · | ·
CCc1ccc(S(=O)(=O)N(C(=O)Oc2ccccc2)c2ccc3oc(C)c(C(=O)OC)c3c2)cc1 | 3.7µM | – | – | – | – | · | – | – | 6.5µM
COC(=O)c1c(C)oc2ccc(N(C(=O)Oc3ccccc3)S(=O)(=O)c3ccc(Cl)c([N+](=O)[O-])c3)cc12 | – | – | – | – | – | – | · | · | ·
O=C(Nc1ccccc1)c1ccc(Nc2c([N+](=O)[O-])cc([N+](=O)[O-])c3ccccc23)cc1 | 7.3µM | – | – | – | – | – | – | – | 5.2µM
O=[N+]([O-])c1cccc2[nH]cnc12 | · | · | – | · | · | · | · | · | ·
Cc1ccc(S(=O)(=O)N2CCC(n3c(C)nc4cccnc43)CC2)c(C)c1 | 9.2µM | – | – | – | – | · | – | – | ·
CC1(C(=O)NS(=O)(=O)c2ccc(Cl)cc2)CCN1C(=O)CCc1cccs1 (centres undefined) | · | – | – | · | · | · | · | · | ·
O=S(=O)(c1ccccc1)N1CCC(O)(CSc2ccccc2)CC1 | ? | – | · | – | – | – | · | · | ·

Screening results as filed in PubChem BioAssay.
